Like-named read-outs stand apart in the source and are kept apart here.
Assays:
Molm-13 = assay: MTT assay, Molm-13 leukemia cell line; assay type: cell-based; conditions: mean
NB4 = assay: MTT assay, NB4 leukemia cell line; assay type: cell-based; conditions: mean
4T1 = assay: MTT assay, 4T1 breast cancer cell line; assay type: cell-based; conditions: mean
HeLa = assay: MTT assay, HeLa cervix cell line; assay type: cell-based, human; conditions: mean
COS-7 = assay: MTT assay, COS-7 normal kidney cell line; assay type: cell-based, African green monkey; conditions: mean
PBMC = assay: MTT assay, PBMC normal cells; assay type: cell-based, rat; conditions: mean
[1] = Pharmaceutic kinetics, blood arsenic content by ICP-MS; conditions: 1.5 mg/kg intravenously once, up to 48 h
[2] = read-out: IC50 COS-7 24 h, 24 h
[3] = read-out: IC50 COS-7 48 h, 48 h

Row | Structure (SMILES) | IC50 (Molm-13; read-out: IC50 Molm 24 h, 24 h) [nM] | IC50 (Molm-13; read-out: IC50 Molm 48 h, 48 h) [nM] | IC50 (NB4; read-out: IC50 NB4 24 h, 24 h) [nM] | IC50 (NB4; read-out: IC50 NB4 48 h, 48 h) [nM] | IC50 (4T1; read-out: IC50 4T1 24 h, 24 h) [nM] | IC50 (4T1; read-out: IC50 4T1 48 h, 48 h) [nM] | IC50 (HeLa; read-out: IC50 HeLa 24 h, 24 h) [nM] | IC50 (HeLa; read-out: IC50 HeLa 48 h, 48 h) [nM] | IC50 (COS-7; [2]) [nM] | IC50 (COS-7; [3]) [nM] | IC50 (PBMC; read-out: IC50 PBMC 24 h, 24 h) [µM] | IC50 (PBMC; read-out: IC50 PBMC 48 h, 48 h) [µM] | blood arsenic content over time [1]
1 | Nc1ccccc1[As]1SCCCS1 | 450 | 410 | 400 | 300 | 870 | 840 | 300 | 250 | 1750 | 810 | 3.5 | 2.8 | –
2 | Nc1ccc([As]2SCCCS2)cc1 | 600 | 530 | 1500 | 1200 | 1670 | 1890 | 1010 | 700 | 6100 | 3200 | 4.6 | 4 | eliminated rapidly

From paper PMC9266561, “1,3-Benzodioxole Derivatives Improve the Anti-Tumor Efficiency of Arsenicals” (International Journal of Molecular Sciences, 2022)
